From US20010053848A1, “Hetero-oligomeric G protein-coupled receptors as novel drug targets” (priority 2000, published 2001) come the findings set out here.

Amino acid sequences for entries named in this document (tags omitted). A change or cut given only in a name is not applied to a line headed by its entry.
UniProt P14416, whole entry: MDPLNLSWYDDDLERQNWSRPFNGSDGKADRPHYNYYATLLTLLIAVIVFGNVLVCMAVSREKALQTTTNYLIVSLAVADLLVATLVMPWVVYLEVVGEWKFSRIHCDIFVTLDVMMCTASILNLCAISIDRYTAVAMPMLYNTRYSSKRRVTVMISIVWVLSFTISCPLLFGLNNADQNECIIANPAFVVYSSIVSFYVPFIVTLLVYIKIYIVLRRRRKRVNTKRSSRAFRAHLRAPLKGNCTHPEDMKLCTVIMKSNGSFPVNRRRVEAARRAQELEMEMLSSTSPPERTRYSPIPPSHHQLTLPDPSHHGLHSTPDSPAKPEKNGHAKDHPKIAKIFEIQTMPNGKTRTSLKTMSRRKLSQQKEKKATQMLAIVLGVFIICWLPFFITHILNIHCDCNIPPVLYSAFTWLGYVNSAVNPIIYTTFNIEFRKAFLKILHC
UniProt P35346: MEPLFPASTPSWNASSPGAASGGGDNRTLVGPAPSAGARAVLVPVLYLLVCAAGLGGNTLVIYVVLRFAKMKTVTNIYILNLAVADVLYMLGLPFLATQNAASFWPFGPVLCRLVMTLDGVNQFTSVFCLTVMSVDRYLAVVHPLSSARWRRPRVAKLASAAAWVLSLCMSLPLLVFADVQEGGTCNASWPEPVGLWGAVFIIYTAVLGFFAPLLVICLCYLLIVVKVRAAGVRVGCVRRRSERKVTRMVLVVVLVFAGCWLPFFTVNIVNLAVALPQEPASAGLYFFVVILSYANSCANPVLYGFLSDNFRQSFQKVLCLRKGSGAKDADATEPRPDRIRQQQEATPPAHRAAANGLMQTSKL

In the test the target is HA-SSTR5 and D2R (Homo sapiens, UniProt P14416+P35346).

Regarding `CCc1cc(Cl)c(OC)c(C(=O)NC[C@@H]2CCCN2CC)c1O` [eticlopride], the “effect on GTPγS-induced reduction of [125I]-LTT-SST-28 binding (G protein coupling)” value is given as “not affected”.
